Laboratory results from patent US8980845B2, “Biotechnological production of cyanophycin dipeptides” (Westfälische Wilhelms-Universität Münster, priority 2008, dated 2015).

Columns and labels:
[1] = tested on: mammalian, avian and fish gut flora
[2] = tested on: CGP degrading axenic cultures

For “multi-L-arginyl-poly-[L-aspartic acid] [CGP]”, the “CGP degradation in tubes inoculated with gut flora samples” value [1] was “complete CGP degradation”, the “Degradation products of CGP (HPLC)” value [2] was “constituting dipeptides” and the “Incubation periods required for the anaerobic CGP degradation by axenic cultures” value [2] was 24 to 170 h. The “CGP degradation Anoxic” value (Strain 15) was “±”, the “CGP degradation Oxic” value (Strain 15) was “+” and the “CGP degradation Anoxic” value (Strain 31) was “±”. The “CGP degradation Oxic” value (Strain 31) was “+”, the “CGP degradation Anoxic” value (Strain 38) was “±” and the “CGP degradation Oxic” value (Strain 38) was “+”. For the same substance, the “CGP degradation Anoxic” value (Strain 47) was “±” and the “CGP degradation Oxic” value (Strain 47) was “+”.
